Assay results: publication PMC5890937 (European journal of medicinal chemistry, 2017)
Where “and” joins values, the source holds several entries; their conditions need not be identical. Equal entries are not always repeated.

Columns and labels:
HDAC8 = molecular target: T1, HDAC8 (Homo sapiens, UniProt Q9BY41); assay: Recombinant HDAC8 inhibition; assay type: biochemical; conditions: from IC50 values
T1 sequence (Q9BY41 1-377): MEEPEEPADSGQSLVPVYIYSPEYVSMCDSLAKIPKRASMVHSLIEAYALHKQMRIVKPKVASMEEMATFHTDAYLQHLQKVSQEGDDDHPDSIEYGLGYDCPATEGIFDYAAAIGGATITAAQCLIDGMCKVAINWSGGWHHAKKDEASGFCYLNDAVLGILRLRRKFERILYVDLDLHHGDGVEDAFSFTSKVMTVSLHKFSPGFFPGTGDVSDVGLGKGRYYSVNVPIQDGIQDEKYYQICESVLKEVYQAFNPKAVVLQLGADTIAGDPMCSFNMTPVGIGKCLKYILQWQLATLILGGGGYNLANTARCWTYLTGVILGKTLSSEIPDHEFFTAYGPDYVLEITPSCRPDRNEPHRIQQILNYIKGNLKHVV

HDAC6 = molecular target: T2, HDAC6 (Homo sapiens, UniProt Q9UBN7); assay: ELISA-based HDAC activity assay, HDAC6; assay type: biochemical
T2 sequence (Q9UBN7 1-1215): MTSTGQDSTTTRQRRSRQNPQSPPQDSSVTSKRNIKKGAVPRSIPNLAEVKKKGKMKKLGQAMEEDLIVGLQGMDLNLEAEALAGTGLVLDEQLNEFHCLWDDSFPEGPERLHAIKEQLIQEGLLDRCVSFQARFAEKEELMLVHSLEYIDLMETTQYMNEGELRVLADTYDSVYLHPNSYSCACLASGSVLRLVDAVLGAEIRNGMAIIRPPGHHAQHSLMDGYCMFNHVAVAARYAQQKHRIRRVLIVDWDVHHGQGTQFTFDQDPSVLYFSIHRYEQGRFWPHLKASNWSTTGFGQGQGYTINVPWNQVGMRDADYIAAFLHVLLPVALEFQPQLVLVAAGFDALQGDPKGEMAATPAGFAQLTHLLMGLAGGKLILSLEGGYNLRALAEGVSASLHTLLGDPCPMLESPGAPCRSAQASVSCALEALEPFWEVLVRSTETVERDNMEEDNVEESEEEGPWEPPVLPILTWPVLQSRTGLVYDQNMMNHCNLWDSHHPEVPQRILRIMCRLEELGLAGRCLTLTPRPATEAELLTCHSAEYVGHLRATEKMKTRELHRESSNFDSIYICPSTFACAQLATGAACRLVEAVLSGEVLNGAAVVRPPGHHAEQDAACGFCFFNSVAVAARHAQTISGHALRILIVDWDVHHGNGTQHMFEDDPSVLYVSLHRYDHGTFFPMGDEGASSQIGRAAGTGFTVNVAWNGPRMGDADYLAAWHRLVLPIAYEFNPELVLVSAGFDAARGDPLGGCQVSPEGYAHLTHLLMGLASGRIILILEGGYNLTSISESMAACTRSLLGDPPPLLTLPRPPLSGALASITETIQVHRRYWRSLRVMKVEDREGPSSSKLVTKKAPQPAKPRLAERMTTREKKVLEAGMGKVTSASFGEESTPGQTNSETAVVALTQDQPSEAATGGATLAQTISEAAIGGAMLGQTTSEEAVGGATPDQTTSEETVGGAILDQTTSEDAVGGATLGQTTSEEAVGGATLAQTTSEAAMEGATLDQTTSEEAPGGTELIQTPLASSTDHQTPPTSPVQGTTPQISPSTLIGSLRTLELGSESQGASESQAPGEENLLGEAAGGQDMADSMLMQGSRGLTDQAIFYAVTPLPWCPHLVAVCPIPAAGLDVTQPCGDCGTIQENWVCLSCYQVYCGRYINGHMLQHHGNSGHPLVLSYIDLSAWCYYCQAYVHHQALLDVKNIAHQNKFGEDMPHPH

acetyl-α-tubulin (AcTub) = assay: In cellulo selectivity testing, western blot of acetyl-α-tubulin in U937 cells; assay type: cell-based, human; conditions: SAHA 5 μM, 1f 20-60 μM, 18 hours
acetyl-histone H3 (AcH3) = assay: In cellulo selectivity testing, western blot of acetyl-histone H3 in U937 cells; assay type: cell-based, human; conditions: SAHA 5 μM, 18 hours

| Structure (SMILES) | HDAC8 selectivity over HDAC1, 2, and 3 (HDAC8) | isoform selectivity in single concentration screen (HDAC6 versus HDAC1, 2, 3) (HDAC6; 1a-f at 0.75, 0.75, 2.5, 1.25, 2.5, and 5 μM, SAHA at 1 μM) | HDAC6 selectivity over HDAC1, 2, and 3 (HDAC6; from IC50 values) | fold selectivity for HDAC6 and HDAC8 over HDAC1, 2, and 3 (HDAC6; from IC50 values) | levels of acetyl-α-tubulin (HDAC6 substrate) (acetyl-α-tubulin (AcTub)) | levels of acetyl-histone H3 (Class I HDAC substrate) (acetyl-histone H3 (AcH3)) |
| --- | --- | --- | --- | --- | --- | --- |
| CCCCC(CCCC(=O)Nc1ccccc1)CCC(=O)NO (stereo not drawn) [Compound 1c, 4-butyl-N^1-hydroxy-N^8-phenyloctanediamide] | at least 200 fold | greatest difference in potency | at least 170 fold | 170- to 480 fold and 170- to 310 fold | – | – |
| O=C(CCCCCCC(=O)Nc1ccccc1)NO [SAHA, Suberoylanilide hydroxamic acid, reference compound] | – | – | – | – | increased levels | increased levels |
